{
  "source": "paper PMC6087491",
  "about": "(Bioorganic & medicinal chemistry, 2018)",
  "experiment": "Preliminary pharmacokinetic study of compound 12 in rats",
  "details": "metabolite after single oral 100 mg/kg of compound 12, PO-1 formulation",
  "data": [
    {"substance": "pterostilbene-4′-O-sulfate", "values": [
      {"measurement": "time of maximum concentration after oral administration", "value": 2.0, "unit": "h"}
    ]}
  ]
}
